Where a chain is given by its changes, count along the chain named.
B1: anti-hVEGF-A clone C018AM-20 (affinity-matured from C018) (antibody, V domains shown)
VH: EVQLLESGGGLVQPGGSLRLSCAASGFTFSSYAMSWVRQAPGKGLEWVSSISGSGGNTYYADSVKGRFTISRDNSKNTLYLQMNSLRAEDTAVYYCAKDTERIQLWLGFDYWGQGTPVTVSS
VL: DIQMTQSPSSLSASVGDRVTITCRASESISSYLAWYQQKPGKAPKLLIYAPSNLESGVPSRFSGSGSGTDFTLTINSLQPEDFATYYCQQYYSTPLTFGQGTKLEIK
B2: anti-hVEGF-A clone C018 (antibody, V domains shown)
VH: not shown
VL: B1 VL
B3: anti-human TNFα clone #314 (antibody, V domains shown)
VH: not shown
VL: B1 VL with E27Q, S31D, A34H, A50D, P51A
B4: anti-human TNFα clone #314AM-043-01 (after two rounds of affinity maturation of #314) (antibody, V domains shown)
VH: EVQLLESGGGLVQPGGSLRLSCAASGFTFSSYAMSWVRQAPGKGLEWVSAISSSSGGSTYYADSVKGRFTISRDNSKNTLYLQMNSLRAEDTAVYYCARSIVGATLDFDYWGQGTTVTVSS
VL: B1 VL with E27Q, S31D, A34H, A50D, P51A

Chains of the proteins cited; added tags and fusions are not shown. A line that says so, or that is headed by a name, gives the form on record, which may keep a tag or linker.
UniProt P15692, other isoform, or with tags, fused parts or gaps: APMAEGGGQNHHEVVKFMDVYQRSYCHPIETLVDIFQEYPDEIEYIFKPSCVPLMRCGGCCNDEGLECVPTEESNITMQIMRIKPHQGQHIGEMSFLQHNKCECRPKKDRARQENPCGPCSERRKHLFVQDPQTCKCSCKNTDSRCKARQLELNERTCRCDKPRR
UniProt P01375, whole entry: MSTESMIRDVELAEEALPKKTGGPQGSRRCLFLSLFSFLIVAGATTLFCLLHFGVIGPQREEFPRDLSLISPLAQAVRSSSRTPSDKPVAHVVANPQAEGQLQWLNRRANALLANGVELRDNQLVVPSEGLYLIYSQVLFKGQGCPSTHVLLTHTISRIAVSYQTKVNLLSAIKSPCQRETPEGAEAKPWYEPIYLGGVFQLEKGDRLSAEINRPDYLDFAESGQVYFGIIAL

Assays:
Test in all cases: SPR
[1] = target: FLAG-tagged human vascular endothelial growth factor-A (FLAG-hVEGF-A) (human, UniProt P15692 1-395)
[2] = target: T1, FLAG-tagged human tumor necrosis factor α (FLAG-hTNFα) (human, UniProt P01375 1-233)
[3] = target: T1, FLAG-tagged human tumor necrosis factor …; remark: listed apart in the source

Binder	koff [1] [s⁻¹]	Kd [2] [nM]	koff [3] [s⁻¹]
B1	0.00147		
B2	31.5		
B3		4.4	0.00467
B4		0.358	0.000683

Source: paper PMC8166883 (2020)
